Where two headings read alike, the source gives them in different places.
Target: recombinant human TACE catalytic domain (rhTACEc) (Homo sapiens (Human), UniProt P78536, N452Q/S266A)
Assay: TACE kinetic FRET assay (cleavage of internally quenched peptide substrate TNF-FRET 2), Ki
[1] = recombinant human TACE catalytic domain, FRET assay

Chains of the proteins cited; added tags and fusions are not shown. Residues count along the entry.
UniProt P78536, 215-477 S266A/N452Q: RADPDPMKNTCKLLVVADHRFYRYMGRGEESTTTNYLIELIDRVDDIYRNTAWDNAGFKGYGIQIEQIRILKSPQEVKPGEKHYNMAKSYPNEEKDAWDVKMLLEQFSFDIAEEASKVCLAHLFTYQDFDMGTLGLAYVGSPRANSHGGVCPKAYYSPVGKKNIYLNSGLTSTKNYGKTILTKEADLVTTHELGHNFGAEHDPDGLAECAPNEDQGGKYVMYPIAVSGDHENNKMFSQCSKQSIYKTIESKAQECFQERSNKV

Structure (SMILES)	Ki [1]	other results
COc1ccc2c(c1)C(=O)N(C[C@@]1(C#Cc3ccc(C(=NO)N4CCCCC4)cc3)NC(=O)NC1=O)C2 [Compound 946]	–	Ki: 120 pM
COc1ccc2c(c1)C(=O)N(C[C@@]1(C#Cc3ccc4c(-c5ccncc5)n[nH]c4c3)NC(=O)NC1=O)C2 [Compound 734]	444 pM	–
COc1ccc2c(c1F)C(=O)N(C[C@@]1(C#Cc3ccc(CN4CCN(c5ccncc5)CC4)cc3)NC(=O)NC1=O)C2 [Compound 981]	388 pM	–
CCN1CCN(c2ccc(O)c(-c3ccc(C#C[C@]4(CN5Cc6ccc(OC)cc6C5=O)NC(=O)NC4=O)cc3)n2)CC1 [Compound 936]	–	Ki (TACE): 93 pM
COc1ccc2c(c1F)C(=O)N(C[C@@]1(C#Cc3ccc(CN4CCc5ccc(F)cc5C4)nc3)NC(=O)NC1=O)C2 [Compound 968]	730 pM	–
COc1ccc2c(c1)C(=O)N(C[C@@]1(C#Cc3ccc(-c4cnccc4OC)nc3)NC(=O)NC1=O)C2 [Compound 1105]	920 pM	–
COc1ccc2c(c1F)C(=O)N(C[C@@]1(C#Cc3ccc(N4CCNCC4)cc3)NC(=O)NC1=O)C2 [Compound 1706]	380 pM	–
COc1ccc2c(c1)C(=O)N(C[C@@]1(C#Cc3cc(Br)ccc3O)NC(=O)NC1=O)C2 [Compound 2229]	430 pM	–
COc1ccc2c(c1)C(=O)N(C[C@@]1(C#Cc3ccc(C(=NO)N4CCC(=O)CC4)cc3)NC(=O)NC1=O)C2 [Compound 945]	–	Ki: 170 pM
COc1ccc2c(c1)C(=O)N(C[C@@]1(C#Cc3ccc4oc(C5(C)NC(=O)NC5=O)cc4c3)NC(=O)NC1=O)C2 (stereo partly drawn) [Compound 909]	–	Ki (TACE): 180 pM
COc1ccc2c(c1)C(=O)N(C[C@@]1(C#Cc3cnc(C)nc3O)NC(=O)NC1=O)C2 [Compound 2231]	520 pM	–
COc1ccc2c(c1)C(=O)N(C[C@@]1(C#Cc3cccnc3-c3cn[nH]c3)NC(=O)NC1=O)C2 [Compound 2266]	–	Ki (TACE): 120 pM
COc1ccc2c(c1)C(=O)N(C[C@@]1(C#Cc3ccc(C(=NO)N4CCSCC4)cc3)NC(=O)NC1=O)C2 [Compound 912]	–	Ki: 160 pM
COc1ccc2c(c1)C(=O)N(C[C@@]1(C#Cc3ccc(C(=NO)N4CCOCC4)cc3)NC(=O)NC1=O)C2 [Compound 941]	–	Ki: 130 pM
COc1ccc2c(c1)C(=O)N(C[C@@]1(C#Cc3ccc(C(=NO)N4CCN(C5CCCCCC5)CC4)cc3)NC(=O)NC1=O)C2 [Compound 927]	–	Ki: 63 pM
COc1ccc2c(c1)C(=O)N(C[C@@]1(C#Cc3ccc(-c4ccccc4O)nc3)NC(=O)NC1=O)C2 [Compound 2277]	–	Ki (TACE): 1670 pM
COc1ccc2c(c1)C(=O)N(C[C@@]1(C#Cc3ccc(C(=NO)c4ccc(F)cc4)cc3)NC(=O)NC1=O)C2 [Compound 2245]	–	Ki: 260 pM
COc1ccc2c(c1F)C(=O)N(C[C@@]1(C#Cc3ccc(N4C(=O)NC5(CC5)C4=O)c(F)c3)NC(=O)NC1=O)C2 [Compound 1317]	340 pM	–

Structure (SMILES)	Ki [1]	other results
COc1ccc2c(c1)C(=O)N(C[C@@]1(C#Cc3nc(N4CCN(c5ccncc5)CC4)ccc3OC)NC(=O)NC1=O)C2 [Compound 2205]	1370 pM	–
COc1ccc2c(c1)C(=O)N(C[C@@]1(C#Cc3cccnc3-c3c(C)nn(C)c3C)NC(=O)NC1=O)C2 [Compound 2264]	–	Ki (TACE): 220 pM
COc1ccc2c(c1)C(=O)N(C[C@@]1(C#Cc3cncc(-c4ccc(O)c(-c5cn[nH]c5)n4)c3)NC(=O)NC1=O)C2 [Compound 1707]	320 pM	–
COc1ccc2c(c1)C(=O)N(C[C@@]1(C#Cc3cnc4ccccc4c3CO)NC(=O)NC1=O)C2 [Compound 2219]	210 pM	–
COc1ccc2c(c1)C(=O)N(C[C@@]1(C#Cc3cccnc3-c3cccnc3)NC(=O)NC1=O)C2 [Compound 2270]	–	Ki (TACE): 310 pM
COc1ccc2c(c1)C(=O)N(C[C@@]1(C#Cc3ccc(-n4cnc(CCNC(C)=O)c4)nc3)NC(=O)NC1=O)C2 [Compound 1130]	600 pM	–
COc1ccc2c(c1)C(=O)N(C[C@@]1(C#Cc3ccc(-c4cnccc4C)nc3)NC(=O)NC1=O)C2 [Compound 1100]	520 pM	–
COc1ccc2c(c1)C(=O)N(C[C@@]1(C#Cc3ccc(C(=NO)N4CCN(C5CCCCC5)CC4)cc3)NC(=O)NC1=O)C2 [Compound 926]	–	Ki: 110 pM
CCN1CCN(C(=O)C2CCC(=O)N2c2ccc(C#C[C@]3(CN4Cc5ccc(OC)c(F)c5C4=O)NC(=O)NC3=O)cc2)CC1 (stereo partly drawn) [Compound 1903]	230 pM	–
COc1ccc2c(c1)C(=O)N(C[C@@]1(C#Cc3cncc(-c4cc[nH]n4)c3)NC(=O)NC1=O)C2 [Compound 2234]	60 pM	–
COc1ccc2c(c1)C(=O)N(C[C@]1(C#Cc3cnc(N)c(C(=O)O)c3)NC(=O)NC1=O)C2 [Compound 903]	–	Ki (TACE): 501000 pM
COc1ccc2c(c1F)C(=O)N(C[C@@]1(C#Cc3ccc(CN4CCN(C5CCCCC5)CC4)cc3)NC(=O)NC1=O)C2 [Compound 982]	360 pM	–
CCN1CCN(C(C)c2ccc(C#C[C@]3(CN4Cc5ccc(OC)c(F)c5C4=O)NC(=O)NC3=O)cc2)CC1 (stereo partly drawn) [Compound 984]	509 pM	–
COc1ccc2c(c1)C(=O)N(C[C@@]1(C#Cc3nc(N)ccc3O)NC(=O)NC1=O)C2 [Compound 1921]	470 pM	–
COc1ccc2c(c1)C(=O)N(C[C@@]1(C#Cc3ccc(-c4ccccc4O)cc3)NC(=O)NC1=O)C2 [Compound 955]	–	Ki (TACE): 313 pM
COc1ccc2c(c1)C(=O)N(C[C@@]1(C#Cc3csc(C4(C)NC(=O)NC4=O)c3)NC(=O)NC1=O)C2 (stereo partly drawn) [Compound 908]	–	Ki (TACE): 420 pM
COc1ccc2c(c1)C(=O)N(C[C@@]1(C#Cc3ccc(/C=N\Nc4ccccc4)cc3)NC(=O)NC1=O)C2 [Compound 935]	–	Ki: 986 pM

Further lines, with some results ahead:

Ki [1]	Structure (SMILES)	other results
520 pM	COc1ccc2c(c1)C(=O)N(C[C@@]1(C#Cc3ccc(C(CN)N4CCC(NC(=O)OC(C)(C)C)C4)cc3)NC(=O)NC1=O)C2 (stereo partly drawn) [Compound 1703]	–
338 pM	COc1ccc2c(c1)C(=O)N(C[C@@]1(C#Cc3ccc(C4(CNS(C)(=O)=O)NC(=O)NC4=O)cc3)NC(=O)NC1=O)C2 (stereo partly drawn) [Compound 1110]	–
330 pM	COc1ccc2c(c1)C(=O)N(C[C@@]1(C#Cc3ccc(-c4nnc(N)o4)cc3)NC(=O)NC1=O)C2 [Compound 1919]	–
521 pM	COc1ccc2c(c1)C(=O)N(C[C@@]1(C#Cc3ccc4c(c3)c(N)nn4CCN(C)C)NC(=O)NC1=O)C2 [Compound 705]	–
300 pM	COc1ccc2c(c1)C(=O)N(C[C@@]1(C#Cc3ccc(-n4c(C)n[nH]c4=O)cc3)NC(=O)NC1=O)C2 [Compound 1915]	–
270 pM	COc1ccc2c(c1)C(=O)N(C[C@@]1(C#Cc3ccc(-c4ccc(C)nc4O)nc3)NC(=O)NC1=O)C2 [Compound 1301]	–
237 pM	COc1ccc2c(c1)C(=O)N(C[C@@]1(C#Cc3ccc4c(O)n[nH]c4c3)NC(=O)NC1=O)C2 [Compound 748]	–
560 pM	COc1ccc2c(c1)C(=O)N(C[C@@]1(C#Cc3ccc(C(CN)N4CCC(N)C4)cc3)NC(=O)NC1=O)C2 (stereo partly drawn) [Compound 1705]	–
1280 pM	COc1ccc2c(c1)C(=O)N(C[C@@]1(C#Cc3ccc(-c4ccc(F)cc4O)nc3)NC(=O)NC1=O)C2 [Compound 1316]	–
490 pM	COc1ccc2c(c1)C(=O)N(C[C@@]1(C#Cc3ccc(CN4CCN(c5nccs5)CC4)cc3)NC(=O)NC1=O)C2 [Compound 980]	–
600 pM	COc1ccc2c(c1)C(=O)N(C[C@@]1(C#Cc3ccc(-n4cn[nH]c4=O)cc3)NC(=O)NC1=O)C2 [Compound 1914]	–
52.4 pM	COc1ccc2c(c1)C(=O)N(C[C@@]1(C#Cc3ccc(-c4nc(-c5cnn(C)c5)ccc4O)cc3)NC(=O)NC1=O)C2 [Compound 973]	–
190 pM	COc1ccc2c(c1)C(=O)N(C[C@@]1(C#Cc3ccc(Nc4c(NCCN5CCOCC5)c(=O)c4=O)cc3)NC(=O)NC1=O)C2 [Compound 1306]	–
